For one compound, IC50 results are on record in ChEMBL document CHEMBL4411321, “Discovery of Potent, Selective, and Orally Bioavailable Estrogen-Related Receptor-γ Inverse Agonists To Restore the Sodium Iodide Symporter Function in Anaplastic Thyroid Cancer” (J Med Chem, 2019).

By UniProt entry, the sequences of proteins in these tests, tags left out. Where a name states a change or a piece, a line headed by the entry shows the natural chain unless it says otherwise.
UniProt Q12809: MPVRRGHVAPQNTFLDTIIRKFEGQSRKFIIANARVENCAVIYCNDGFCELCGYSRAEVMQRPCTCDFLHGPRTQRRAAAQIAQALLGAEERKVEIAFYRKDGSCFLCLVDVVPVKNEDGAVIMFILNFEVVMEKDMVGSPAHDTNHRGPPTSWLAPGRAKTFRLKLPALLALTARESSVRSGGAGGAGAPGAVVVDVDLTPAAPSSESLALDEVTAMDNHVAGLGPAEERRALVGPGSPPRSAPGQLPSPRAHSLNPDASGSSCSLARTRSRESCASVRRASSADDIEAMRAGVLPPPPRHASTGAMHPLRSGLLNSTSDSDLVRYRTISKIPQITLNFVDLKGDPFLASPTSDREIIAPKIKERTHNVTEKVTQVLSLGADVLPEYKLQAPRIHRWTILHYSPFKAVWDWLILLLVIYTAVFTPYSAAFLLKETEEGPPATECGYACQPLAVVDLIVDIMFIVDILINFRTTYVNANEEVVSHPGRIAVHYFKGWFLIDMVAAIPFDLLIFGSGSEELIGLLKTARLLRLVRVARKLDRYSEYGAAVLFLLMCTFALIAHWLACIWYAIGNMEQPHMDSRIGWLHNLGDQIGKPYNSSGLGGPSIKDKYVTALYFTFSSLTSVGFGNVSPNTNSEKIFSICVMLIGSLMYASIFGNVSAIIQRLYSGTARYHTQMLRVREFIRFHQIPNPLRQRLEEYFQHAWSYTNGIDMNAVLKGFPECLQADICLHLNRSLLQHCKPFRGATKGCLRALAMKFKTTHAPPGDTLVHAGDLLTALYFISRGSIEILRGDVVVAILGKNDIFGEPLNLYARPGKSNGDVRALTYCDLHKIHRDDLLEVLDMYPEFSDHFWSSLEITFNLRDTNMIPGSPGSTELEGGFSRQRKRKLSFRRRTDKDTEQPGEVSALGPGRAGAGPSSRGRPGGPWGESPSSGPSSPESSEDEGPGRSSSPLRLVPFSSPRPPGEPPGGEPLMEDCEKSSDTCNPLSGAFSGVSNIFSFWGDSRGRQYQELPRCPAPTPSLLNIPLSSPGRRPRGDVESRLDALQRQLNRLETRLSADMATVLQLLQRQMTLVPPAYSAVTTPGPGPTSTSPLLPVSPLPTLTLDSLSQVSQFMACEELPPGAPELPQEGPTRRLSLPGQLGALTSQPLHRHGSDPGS

The target of the test is Voltage-gated inwardly rectifying potassium channel KCNH2 (Homo sapiens, UniProt Q12809).

pIC50: −log10 of the molar value. Where only a bound is given, the exact number is not on record here.

For the compound `CN(C)CCOc1ccc(/C(=C(/CCCO)c2ccccc2)c2ccc(O)cc2)cc1.Cl`, the negative logarithm of the IC50 (pIC50) is under 4.52.

Usually pIC50 stands for the negative decadic logarithm of the IC50, by convention in mol/L.
